Reference: ChEMBL document CHEMBL2331285, “Optimization of 3,5-dimethylisoxazole derivatives as potent bromodomain ligands” (J Med Chem, 2013)

Target: Bromodomain-containing protein 4 (Homo sapiens, UniProt O60885)
Test: Binding affinity to human BRD4 bromodomain 1 using H4Ac4 peptide by amplified luminescent proximity homogeneous assay

CC(=O)Oc1cc(-c2c(C)noc2C)cc(C(O)c2ccccc2)c1 (racemic)
IC50: 371 nM
pIC50: 6.43
